Molecules are shown by their SMILES. The source made the active and inactive calls. No cut-off for these calls is given here.

The test system of assay [1] is Mus musculus. Briefly: Antifibrotic activity against intranasal bleomycin-induced C57BL/6N mouse pulmonary fibrosis model assessed as reduction in Ashcroft score at 60 mg/kg, po qd administered for 15 days starting from 7 days post induction. The assay is classed as functional, organism-based. Conditions: time 15.0 day.
Assay [2] deals with Mus musculus. Briefly: Antifibrotic activity against Hypo fractionated palliative 17 Gy radiotherapy-induced C57BL/6J mouse lung fibrosis model assessed as reduction in collagen deposition at 60 mg/kg, po qd administered for 25 days starting from 16 weeks post irradiation by hematoxylin and eosin staining based assay. Conditions: time 25.0 day. The assay is classed as functional, organism-based.

With `COC(=O)c1ccc2c(c1)NC(=O)/C2=C(\Nc1ccc(N(C)C(=O)CN2CCN(C)CC2)cc1)c1ccccc1`, the outcome in assay [1] and in assay [2] was Active.
